Experiments:
[1] = biological target: GLP-1 receptor (GLP-1R) (UniProt P43220)
[2] = biological target: T1, GLP-1R (Homo sapiens, UniProt P43220); experiment: In vitro activity assay: cAMP production by GLP-1R-overexpressing HEK-293 cells; type: cell-based
T1 construct: Tango fusion cassette (named only as '_tango' in the plasmid name); host or cells: HEK293 (ATCC), transiently transfected
Method: The plasmid pcDNA3.1-GLP-1R_tango (Addgene, Cambridge, MA, USA) and transfection reagent were then mixed in serum-free medium for 20 min, in accordance with the manufacturer’s recommendation. […] The levels of cAMP in the cell lysate were measured using the cAMP Parameter Assay Kit following the manufacturer’s protocol. […] The half maximal effective concentrations (EC50) of each curve were estimated from a dose–response curve using OriginPro software. Absorbance at 450 nm was monitored using a Varioskan Lux microplate reader (Thermo Fisher Scientific).

Sequences of proteins named here, by UniProt entry; tags and fusion partners are left off. Residues count along the entry.
UniProt P43220, 24-463: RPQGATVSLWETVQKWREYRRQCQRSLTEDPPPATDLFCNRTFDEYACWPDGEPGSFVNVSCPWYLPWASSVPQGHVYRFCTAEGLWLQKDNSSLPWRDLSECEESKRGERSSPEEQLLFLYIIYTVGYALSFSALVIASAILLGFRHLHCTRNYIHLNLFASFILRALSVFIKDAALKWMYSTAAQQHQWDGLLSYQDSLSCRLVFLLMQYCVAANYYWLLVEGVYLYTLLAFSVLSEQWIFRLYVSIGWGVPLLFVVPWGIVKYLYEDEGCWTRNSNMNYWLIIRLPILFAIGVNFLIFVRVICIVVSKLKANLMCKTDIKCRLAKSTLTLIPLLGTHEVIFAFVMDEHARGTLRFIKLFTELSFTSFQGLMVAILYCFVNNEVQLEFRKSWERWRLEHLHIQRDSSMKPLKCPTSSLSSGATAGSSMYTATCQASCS

| EC50 of cAMP production by GLP-1R-overexpressing HEK-293 cells [1] [nM] | EC50 [2] [nM] | Compound |
| --- | --- | --- |
| 13.2 | – | GLP1_8GWT (peptide) |
| – | 13.2 | CC[C@H](C)[C@H](NC(=O)[C@H](Cc1ccccc1)NC(=O)[C@H](CCC(=O)O)NC(=O)[C@H](CCCCN)NC(=O)[C@H](C)NC(=O)[C@H](C)NC(=O)[C@H](CCC(N)=O)NC(=O)CNC(=O)[C@H](CCC(=O)O)NC(=O)[C@H](CC(C)C)NC(=O)[C@H](Cc1ccc(O)cc1)NC(=O)[C@H](CO)NC(=O)[C@H](CO)NC(=O)[C@@H](NC(=O)[C@H](CC(=O)O)NC(=O)[C@H](CO)NC(=O)[C@@H](NC(=O)[C@H](Cc1ccccc1)NC(=O)[C@@H](NC(=O)CNC(=O)[C@H](CCC(=O)O)NC(=O)CNC(=O)[C@@H](N)Cc1c[nH]cn1)[C@@H](C)O)[C@@H](C)O)C(C)C)C(=O)N[C@@H](C)C(=O)N[C@@H](Cc1c[nH]c2ccccc12)C(=O)N[C@@H](CC(C)C)C(=O)N[C@H](C(=O)N[C@@H](CCCNC(=N)N)C(=O)NCC(=O)N[C@@H](CCCNC(=N)N)C(=O)NCC(=O)O)C(C)C [GLP1_8GWT] |

Reference: paper PMC7919490, “Effect of C-terminus Conjugation via Different Conjugation Chemistries on In Vivo Activity of Albumin-Conjugated Recombinant GLP-1” (Pharmaceutics, 2021)
